{"source": "PubChem BioAssay AID1811", "origin": "cited, not measured here", "assay_in_all_cases": "PubChem AID 1811", "key": {"[1]": {"biological_target": "collagenase 3 (mmp-13)", "conditions": "PDB complex binding affinities from literature; IC50 when reported"}, "[2]": {"biological_target": "anaerobic ribonucleotide-triphosphate reductase", "conditions": "PDB complex binding affinities from literature; Kd when reported"}, "[3]": {"biological_target": "glutathione s-transferase", "conditions": "PDB complex binding affinities from literature; Kd when reported"}, "[4]": {"biological_target": "glutathione s-transferase class pi", "conditions": "PDB complex binding affinities from literature; Kd when reported"}, "[5]": {"biological_target": "1H62 A", "conditions": "PDB complex binding affinities from literature; Kd when reported"}, "[6]": {"biological_target": "hepatocyte growth factor receptor", "conditions": "PDB complex binding affinities from literature; Kd when reported"}, "[7]": {"biological_target": "beta-n-acetylhexosaminidase", "conditions": "PDB complex binding affinities from literature; Ki when reported"}, "[8]": {"biological_target": "Gag-Pol polyprotein (Pr160Gag-Pol)", "conditions": "PDB complex binding affinities from literature; Kd when reported"}, "[9]": {"biological_target": "HIV-1 protease", "conditions": "PDB complex binding affinities from literature; Ki when reported"}, "[10]": {"biological_target": "hiv-1 protease", "conditions": "PDB complex binding affinities from literature; Ki when reported"}, "[11]": {"biological_target": "xaa-pro aminopeptidase", "conditions": "PDB complex binding affinities from literature; Ki when reported"}, "[12]": {"biological_target": "retinoic acid receptor rxr-alpha", "conditions": "PDB complex binding affinities from literature; Ki when reported"}, "[13]": {"biological_target": "maltose-binding periplasmic protein", "conditions": "PDB complex binding affinities from literature; Kd when reported"}, "[14]": {"biological_target": "6-phosphofructokinase", "conditions": "PDB complex binding affinities from literature; Ki when reported"}, "[15]": {"biological_target": "bruton's tyrosine kinase", "conditions": "PDB complex binding affinities from literature; Kd when reported"}, "[16]": {"biological_target": "dual adaptor of phosphotyrosine and 3 phosphoinositides", "conditions": "PDB complex binding affinities from literature; Kd when reported"}, "[17]": {"biological_target": "tyrosine kinase btk", "conditions": "PDB complex binding affinities from literature; Kd when reported"}, "[18]": {"biological_target": "adenine-n6-dna-methyltransferase taqi", "conditions": "PDB complex binding affinities from literature; Kd when reported"}, "[19]": {"biological_target": "ermc' methyltransferase", "conditions": "PDB complex binding affinities from literature; Ki when reported"}, "[20]": {"biological_target": "beta-hydroxysteroid dehydrogenase", "conditions": "PDB complex binding affinities from literature; Ki when reported"}, "[21]": {"biological_target": "sialidase", "conditions": "PDB complex binding affinities from literature; Ki when reported"}, "[22]": {"biological_target": "lysozyme", "conditions": "PDB complex binding affinities from literature; Kd when reported"}, "[23]": {"biological_target": "fmn-binding protein", "conditions": "PDB complex binding affinities from literature; Kd when reported"}, "[24]": {"biological_target": "nadh oxidase", "conditions": "PDB complex binding affinities from literature; Kd when reported"}, "[25]": {"biological_target": "pyridoxal phosphate biosynthetic protein pdxj", "conditions": "PDB complex binding affinities from literature; Kd when reported"}, "[26]": {"biological_target": "1RYH A", "conditions": "PDB complex binding affinities from literature; Kd when reported"}, "[27]": {"biological_target": "thrombin pro", "conditions": "PDB complex binding affinities from literature; Ki when reported"}, "[28]": {"biological_target": "alkaline phosphatase", "conditions": "PDB complex binding affinities from literature; Ki when reported"}, "[29]": {"biological_target": "mutator mutt protein", "conditions": "PDB complex binding affinities from literature; Kd when reported"}, "[30]": {"biological_target": "neutrophil gelatinase-associated lipocalin", "conditions": "PDB complex binding affinities from literature; Kd when reported"}, "[31]": {"biological_target": "ornithine decarboxylase", "conditions": "PDB complex binding affinities from literature; Ki when reported"}, "[32]": {"biological_target": "auxin-binding protein 1", "conditions": "PDB complex binding affinities from literature; Kd when reported"}, "[33]": {"biological_target": "phosphoenolpyruvate phosphomutase", "conditions": "PDB complex binding affinities from literature; Ki when reported"}, "[34]": {"biological_target": "epoxide hydrolase", "conditions": "PDB complex binding affinities from literature; Ki when reported"}, "[35]": {"biological_target": "uridine phosphorylase", "conditions": "PDB complex binding affinities from literature; Kd when reported"}, "[36]": {"biological_target": "1IL9 A", "conditions": "PDB complex binding affinities from literature; IC50 when reported"}, "[37]": {"biological_target": "DNA gyrase b", "conditions": "PDB complex binding affinities from literature; Kd when reported"}, "[38]": {"biological_target": "serine/threonine-protein kinase chk1", "conditions": "PDB complex binding affinities from literature; Ki when reported"}}}
{"smiles": "COc1ccc(S(=O)(=O)N(Cc2cccnc2)c2c(C)cccc2C(=O)NO)cc1", "values": [{"measurement": "IC50", "setting": "[1]", "result": 0.033, "unit": "µM"}]}
{"smiles": "Nc1ncnc2c1ncn2[C@H]1C[C@H](O)[C@@H](COP(=O)(O)OP(=O)(O)OP(=O)(O)O)O1", "values": [{"measurement": "Kd", "setting": "[2]", "result": 19, "unit": "µM"}]}
{"smiles": "N[C@@H](CCC(=O)N[C@@H](CS)C(=O)NCC(=O)O)C(=O)O", "values": [{"measurement": "Kd", "setting": "[3]", "result": 90, "unit": "µM"}, {"measurement": "Kd", "setting": "[4]", "result": 668, "unit": "µM"}]}
{"smiles": "C[C@]12C=CC(=O)C=C1CC[C@@H]1[C@@H]2CC[C@]2(C)C(=O)CC[C@@H]12", "values": [{"measurement": "Kd", "setting": "[5]", "result": 17, "unit": "µM"}]}
{"smiles": "COC(=O)[C@@]1(O)C[C@H]2O[C@]1(C)n1c3ccccc3c3c4c(c5c6ccccc6n2c5c31)C(=O)NC4", "values": [{"measurement": "Kd", "setting": "[6]", "result": 0.01, "unit": "µM"}]}
{"smiles": "CC1=N[C@@H]2[C@@H](O)[C@H](O)[C@@H](CO)O[C@@H]2S1", "values": [{"measurement": "Ki", "setting": "[7]", "result": 0.28, "unit": "µM"}]}
{"smiles": "Cc1cccc(C)c1OCC(=O)N[C@@H](Cc1ccccc1)[C@@H](O)C[C@H](Cc1ccccc1)NC(=O)[C@H](C(C)C)N1CCCNC1=O", "values": [{"measurement": "Kd", "setting": "[8]", "result": 0.031, "unit": "nM"}, {"measurement": "Ki", "setting": "[9]", "result": 5, "unit": "pM"}, {"measurement": "Ki", "setting": "[10]", "result": 1.3, "unit": "pM"}]}
{"smiles": "C[C@H](NC(=O)[C@@H]1CCCN1C(=O)[C@@H]1CCCN1C(=O)[C@@H](O)[C@H](N)Cc1ccccc1)C(N)=O", "values": [{"measurement": "Ki", "setting": "[11]", "result": 14, "unit": "µM"}]}
{"smiles": "Cc1oc(-c2ccccc2)nc1CCOc1ccc(C[C@H](Nc2ccccc2C(=O)c2ccccc2)C(=O)O)cc1", "values": [{"measurement": "Ki", "setting": "[12]", "result": 0.001, "unit": "µM"}]}
{"smiles": "OC[C@@H](O)[C@@H](O[C@H]1O[C@H](CO)[C@@H](O[C@H]2O[C@H](CO)[C@@H](O[C@H]3O[C@H](CO)[C@@H](O)[C@H](O)[C@H]3O)[C@H](O)[C@H]2O)[C@H](O)[C@H]1O)[C@H](O)[C@@H](O)CO", "values": [{"measurement": "Kd", "setting": "[13]", "result": 8, "unit": "µM"}]}
{"smiles": "O=P(O)(O)OC[C@H]1O[C@](O)(CO)[C@@H](O)[C@@H]1O", "values": [{"measurement": "Ki", "setting": "[14]", "result": 0.11, "unit": "µM"}]}
{"smiles": "O=P(O)(O)OC1[C@H](O)[C@H](OP(=O)(O)O)C(OP(=O)(O)O)[C@H](OP(=O)(O)O)[C@H]1O", "note": "(stereo partly drawn)", "values": [{"measurement": "Kd", "setting": "[15]", "result": 0.087, "unit": "µM"}, {"measurement": "Kd", "setting": "[16]", "result": 0.043, "unit": "µM"}, {"measurement": "Kd", "setting": "[17]", "result": 0.04, "unit": "µM"}]}
{"smiles": "Nc1ncnc2c1ncn2[C@@H]1O[C@H](C[C@@H](N)CC[C@H](N)C(=O)O)[C@@H](O)[C@H]1O", "values": [{"measurement": "Kd", "setting": "[18]", "result": 0.34, "unit": "µM"}, {"measurement": "Ki", "setting": "[19]", "result": 18, "unit": "µM"}]}
{"smiles": "C[C@]12CC[C@@H]3c4ccc(O)cc4CC[C@H]3[C@@H]1C[C@H](CCCCCCCCC(=O)OC[C@H]1O[C@@H](n3cnc4c(N)ncnc43)[C@H](O)[C@@H]1O)[C@@H]2O", "values": [{"measurement": "Ki", "setting": "[20]", "result": 0.003, "unit": "µM"}]}
{"smiles": "CC(=O)N[C@H]1[C@H]([C@H](O)[C@H](O)CO)OC(C(=O)O)=C[C@@H]1O", "values": [{"measurement": "Ki", "setting": "[21]", "result": 140, "unit": "µM"}]}
{"smiles": "Oc1cccc(Cl)c1", "values": [{"measurement": "Kd", "setting": "[22]", "result": 56, "unit": "µM"}]}
{"smiles": "Cc1cc2nc3c(=O)[nH]c(=O)nc-3n(C[C@H](O)[C@H](O)[C@H](O)COP(=O)(O)O)c2cc1C", "values": [{"measurement": "Kd", "setting": "[23]", "result": 0.00043, "unit": "µM"}, {"measurement": "Kd", "setting": "[24]", "result": 0.09, "unit": "µM"}]}
{"smiles": "CC(=O)[C@@H](O)[C@H](O)COP(=O)(O)O", "values": [{"measurement": "Kd", "setting": "[25]", "result": 54, "unit": "µM"}]}
{"smiles": "Nc1nc2c(ncn2[C@@H]2O[C@H](COP(=O)(O)OP(=O)(O)NP(=O)(O)O)[C@@H](O)[C@H]2O)c(=O)[nH]1", "values": [{"measurement": "Kd", "setting": "[26]", "result": 0.0276, "unit": "µM"}]}
{"smiles": "NC(N)=NCCCNC(=O)[C@@H]1CCCCN1C(=O)[C@@H](CC1CCCCC1)NCC(=O)O", "values": [{"measurement": "Ki", "setting": "[27]", "result": 0.0042, "unit": "µM"}]}
{"smiles": "O=C(O)CP(=O)(O)O", "values": [{"measurement": "Ki", "setting": "[28]", "result": 5500, "unit": "µM"}]}
{"smiles": "Nc1nc2c([nH]c(=O)n2[C@H]2C[C@H](O)[C@@H](COP(=O)(O)O)O2)c(=O)[nH]1", "values": [{"measurement": "Kd", "setting": "[29]", "result": 0.052, "unit": "µM"}]}
{"smiles": "O=C(O)c1cccc(O)c1O", "values": [{"measurement": "Kd", "setting": "[30]", "result": 0.0079, "unit": "µM"}]}
{"smiles": "CN[C@@H]1[C@@H](O)[C@@H](O[C@@H]2[C@@H](O)[C@H](O[C@H]3O[C@H]([C@H](C)O)[C@@H](O)[C@H](O)[C@H]3N)[C@@H](N)C[C@H]2N)OC[C@]1(C)O", "values": [{"measurement": "Ki", "setting": "[31]", "result": 8000, "unit": "µM"}]}
{"smiles": "O=C(O)Cc1cccc2ccccc12", "values": [{"measurement": "Kd", "setting": "[32]", "result": 0.15, "unit": "µM"}]}
{"smiles": "O=C(O)C(=O)CS(=O)(=O)O", "values": [{"measurement": "Ki", "setting": "[33]", "result": 22, "unit": "µM"}]}
{"smiles": "O=C(Nc1ccc(I)cc1)NC1CCCCC1", "values": [{"measurement": "Ki", "setting": "[34]", "result": 0.017, "unit": "µM"}]}
{"smiles": "CSC[C@H]1N[C@@H](c2c[nH]c3c(=O)[nH]cnc23)[C@H](O)[C@@H]1O", "values": [{"measurement": "Kd", "setting": "[35]", "result": 0.0027, "unit": "µM"}]}
{"smiles": "Cc1nc2c(=O)[nH]c(N)nc2o1", "values": [{"measurement": "IC50", "setting": "[36]", "result": 400, "unit": "µM"}]}
{"smiles": "CO[C@@H]1[C@@H](OC(=O)c2ccc(C)[nH]2)[C@@H](O)[C@H](Oc2ccc3c(O)c(NC(=O)c4ccc(O)c(CC=C(C)C)c4)c(=O)oc3c2Cl)OC1(C)C", "values": [{"measurement": "Kd", "setting": "[37]", "result": 0.0012, "unit": "µM"}]}
{"smiles": "CN[C@@H]1C[C@H]2O[C@@](C)([C@@H]1OC)n1c3ccccc3c3c4c(c5c6ccccc6n2c5c31)C(=O)NC4=O", "values": [{"measurement": "Ki", "setting": "[38]", "result": 0.0056, "unit": "µM"}]}
